These are literature values, as cited in US20230144023A1, “USE OF BUTYLPHTHALIDE AND DERIVATIVE THEREOF” (CSPC NBP PHARMACEUTICAL CO., LTD, priority 2020, published 2023).

For this data set, the system named is chemotherapy-induced peripheral neuropathy. As to conditions: treatment of CIPN; guideline rating; cited from earlier work.

Consider Amitriptyline/nortriptyline, for which the Safety result was “Low”.
